Our source for the IC50 values is patent US20240327401A1, “FUSED RING COMPOUND, PHARMACEUTICAL COMPOSITION, AND APPLICATION THEREOF” (EVOPOINT BIOSCIENCES CO., LTD., priority 2021, published 2024).

Amino acid sequences for entries named in this document (tags omitted). A change or cut given only in a name is not applied to a line headed by its entry. Residues count along the entry.
UniProt Q07889, 564-1049 limits assumed, stated change not applied: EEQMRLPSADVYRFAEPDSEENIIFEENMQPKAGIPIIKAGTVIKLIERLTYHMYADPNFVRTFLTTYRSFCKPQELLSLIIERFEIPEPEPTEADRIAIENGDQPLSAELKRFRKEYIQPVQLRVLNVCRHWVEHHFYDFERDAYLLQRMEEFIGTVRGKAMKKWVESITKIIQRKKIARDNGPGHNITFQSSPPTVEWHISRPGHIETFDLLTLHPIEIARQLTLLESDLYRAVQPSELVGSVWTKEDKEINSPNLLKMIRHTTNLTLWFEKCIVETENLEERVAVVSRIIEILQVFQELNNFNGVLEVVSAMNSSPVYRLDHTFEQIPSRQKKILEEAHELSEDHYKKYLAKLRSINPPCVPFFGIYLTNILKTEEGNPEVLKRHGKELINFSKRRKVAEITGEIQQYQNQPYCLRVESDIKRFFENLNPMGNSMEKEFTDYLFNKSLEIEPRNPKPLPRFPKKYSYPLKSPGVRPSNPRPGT

One may read the IC50 as the concentration at which inhibition is half-maximal.

Assay [1] deals with ERK phosphorylation in DLD-1 cells. In words: In-cell Western blot assay for ERK phosphorylation in DLD-1 cells. Particulars: read-out: DLD-1 p-ERK IC50, p-ERK signal corrected using DMSO and BI-3406, four-parameter fit. How it is done:
Efficacy Example 1: In-cell Western Blot Assay for ERK Phosphorylation in DLD-1 Cells
DLD-1 cells (ATCC, CCL-221) were thawed and cultured in a culture medium containing RPMI1640 (Gibco, A10491-01), 10% fetal bovine serum (FBS) (Transgene, FS201-02) and 1% antibiotic P/S (Gibco, 15140-122) for 3 days until the cell viability was good. The cells were inoculated into a 384-well plate and incubated at 37° C. with 5% CO2 overnight. A test compound, a positive control compound, and a negative control were added. The compound was at concentrations of 10000 nM to 1.52 nM (3-fold dilution) and […], for a total of 10 concentrations. The mixture was well mixed and incubated at 37° C. with 5% CO2. The cells were washed twice with PBS (Solarbio, P1010), and then a blocking buffer was added. After 1 h of blocking at room temperature, a primary antibody mixture (phospho-p44/42 MAPK (T202/Y204) Rabbit mAb (CST, […]), GAPDH (D4C6R) Mouse mAb) (CST, 97166S) was added, followed by overnight incubation at 4° C. […] The 384-well plate was reversed and centrifuged at 1000 rpm for 1 min, and read on an Odyssey CLx fluorescence imaging system (LI-COR) to obtain fluorescence signal values, which were corrected using DMSO and BI-3406. […]
The IC50 values of the compounds were calculated using a four-parameter fitting algorithm, specifically as follows: […]

In assay [2] the target is SOS1/KRAS G12C protein binding (Homo sapiens, UniProt Q07889). In words: Inhibition of SOS1/KRAS G12C protein binding (665 nm/615 nm ratio). Particulars: read-out: KRAS-SOS1 IC50; 15 nM KRAS G12C (aa 1-169), 2.5 nM His-SOS1 (aa 564-1049); nonlinear regression. How it is done:
Efficacy Example 2: Evaluation of Inhibition of SOS1/KRAS G12C Protein Binding
A test compound was dissolved in 100% DMSO to give a solution at a concentration of 10 mM. 10 μL of the solution was taken and 3-fold diluted with 100% DMSO to prepare test compound solutions with concentrations of 10000 nM to […], for a total of 11 concentrations. The compound solutions at different concentrations were then transferred to a 384-well plate at 0.1 μL/well using a sonic droplet device Echo (Labcyte), and 2 replicate wells were set for each concentration.
A 15 nM KRAS G12C (aa 1-169) protein (Pharmaron Beijing Co., Ltd., 20200707) was transferred to the 384-well reaction plate at 5 μL/well using the sonic droplet device Echo (Labcyte), and then the reaction plate was centrifuged in a centrifuge (Eppendorf, 5810R) at 1000 rpm/min for 1 min. […]
The 665 nm/615 nm optical density ratio was read using an Envision multifunctional microplate reader (Perkin Elmer, Envision 2104). […]
The IC50 (half maximal inhibitory concentration) values of the compounds were calculated using the following non-linear fitting equation: […]

With `[2H]C([2H])([2H])Oc1c(=O)n(C2(C(F)F)CC2)cc2c(N[C@H](C)c3cccc(C(F)(F)F)c3C)nc(C)nc12`, the values for the IC50 in assay [1] and in assay [2] were 93 nM and 4.18 nM, respectively.
